The text below walks through data of PubChem BioAssay AID1259398 (Fisher Drug Discovery Resource Center, 2018).

Chains of the proteins cited; added tags and fusions are not shown.
UniProt Q8N884, whole entry: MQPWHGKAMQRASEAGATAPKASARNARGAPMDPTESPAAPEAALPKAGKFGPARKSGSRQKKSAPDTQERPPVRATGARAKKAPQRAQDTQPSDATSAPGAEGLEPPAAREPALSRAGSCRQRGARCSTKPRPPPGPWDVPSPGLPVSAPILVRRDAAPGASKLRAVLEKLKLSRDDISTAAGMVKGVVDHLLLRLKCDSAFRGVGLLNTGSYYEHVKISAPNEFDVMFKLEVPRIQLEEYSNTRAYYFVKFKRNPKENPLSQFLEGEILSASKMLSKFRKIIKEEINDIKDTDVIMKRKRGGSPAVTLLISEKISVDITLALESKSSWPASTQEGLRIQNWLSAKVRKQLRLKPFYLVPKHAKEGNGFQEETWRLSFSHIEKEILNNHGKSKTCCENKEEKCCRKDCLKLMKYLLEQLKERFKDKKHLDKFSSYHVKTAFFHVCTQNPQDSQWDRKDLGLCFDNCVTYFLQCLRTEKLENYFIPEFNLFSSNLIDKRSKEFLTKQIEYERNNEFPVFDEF

Several values for one entry are separate records, joined by “and”; a condition that tells them apart may be missing. Equal values may be shown once. Only a part is listed here, and it is no random draw. Activity calls are given as the source filed them. Cut-off read from the data, not from the text of the source: active = inhibition above about 40%; inactive = the rest.

The target in this assay is Cyclic GMP-AMP synthase (Homo sapiens) (UniProt Q8N884). The assay is described as follows: Primary biochemical luminescence assay for human cyclic GMP-AMP synthase inhibitors (AID 1259398).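 Note: 0% = vehicle reaction and 100% = reaction without DNA for no activity.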 Particulars: recombinant h-cGAS, ATP depletion, Kinase-Glo luminescence; at 12.5 µM; hits give high values. Background: Kinase-Glo measures the ATP left after a reaction by luminescence.
What is called inhibition is the change of the read-out against control, counted positive when it falls. Consider `CC(C)(C)c1ncc(C(=O)NCC2(N3CCOCC3)CCCCC2)c(=O)[nH]1`, for which the inhibition was inactive: -12.3%.

As for `COc1ccc(N(C(=O)CC(C)C)C2CCNCC2)cc1`, the inhibition is inactive: -4.23%.

Consider `CCc1ccc(N(C(=O)c2cccc(C)c2)C2CCNCC2)cc1`, for which the inhibition is inactive: -0.67%.

Turning to `Nc1cc(C(=O)NCC2(N3CCCC3)CCCCC2)[nH]n1`, the inhibition was inactive: -5.41%.

In the case of `Cc1ccc(N(C(=O)c2ccco2)C2CCNCC2)cc1F`, the inhibition was inactive: -5.24%.

`Cc1nc2ncc(C(=O)N(C)CC3(N4CCCCC4)CCCCC3)c(=O)n2[nH]1`: the inhibition is inactive: 10.4%.

For the molecule `O=c1[nH]c2ccccc2n1C1CCN(Cc2ccccn2)CC1`, the inhibition was inactive: -5.54%.

Regarding `O=C(NCC1(N2CCCCC2)CCCCC1)c1ccc2c(c1)OCO2`, the inhibition was inactive: -6.84%.

On to `Cc1cccc(N(C(=O)c2ccco2)C2CCN(C(=O)OC(C)(C)C)CC2)c1`, for which the inhibition was inactive: -6.87%.

As to `O=C(NCC1(N2CCOCC2)CCCCC1)c1ccc(OCC(F)(F)F)nc1`, the inhibition was inactive: 3.83%.

Take `COc1cccc(NC2CCN(Cc3ccncc3)CC2)c1`: the inhibition was inactive: 2.62%.

With `N#Cc1ccc(C(=O)CBr)cc1`, the inhibition is inactive: -7.77%.

For the molecule `O=c1[nH]c2ccccc2n1C1CCN(Cc2cccc(F)c2F)CC1`, the inhibition was inactive: -12.2%.

As to `CCOC(OCC)P(=S)(OCC)OCC`, the inhibition was inactive: -2.72%.

As for `O=C(N[C@@H]1CCCC[C@H]1N1CCOCC1)c1cccc(Br)c1`, the inhibition was inactive: -1.94%.

For the molecule `Cc1cc(=O)[nH]c(C(C)N2CCC(Nc3ccccc3)CC2)n1` (stereo not drawn), the inhibition is inactive: -11.4% and inactive: -3.35%.

As to `Cc1nc(N)ncc1C(=O)NCC1(N2CCCC2)CCCCC1`, the inhibition is inactive: 3.48%.

For `O=C(NCC1(N2CCOCC2)CCCCC1)c1ccc2c3c(cccc13)CC2`, the inhibition is inactive: -2.46%.

Regarding `Cn1cc(C(=O)NCC2(N3CCCC3)CCCCC2)c(=O)[nH]c1=O`, the inhibition is inactive: -18.1%.

On to `CCn1ccc(C(=O)N(C)CC2(N3CCCCC3)CCCCC2)cc1=O`, for which the inhibition is inactive: -21.2%.

For the molecule `O=C(NCC1(N2CCCCC2)CCCCC1)c1cc2c(s1)CCC2`, the inhibition is inactive: -3.47%.

`COCC(=O)N(c1cccc(C)c1)C1CCNCC1`: the inhibition was inactive: -3.73%.

`CN(CC1(N2CCCCC2)CCCCC1)C(=O)c1cnc2c(c1)nnn2C`: the inhibition was inactive: -6.75%.

In the case of `COc1cc(NC2CCNCC2)cc(OC)c1`, the inhibition is inactive: -19.8%.

Turning to `COc1cccc(N(C(=O)c2cccc(Cl)c2)C2CCNCC2)c1`, the inhibition was inactive: -1.92%.

For `O=C(NCC1(N2CCCCC2)CCCCC1)c1cn2ccccc2n1`, the inhibition was inactive: -15.4%.

As for `CC(C)(C)OC(=O)N1CCC(Nc2ccccc2)(C(=O)N2CCC2)CC1`, the inhibition is inactive: -5.83%.

Take `O=C(NCC1(N2CCOCC2)CCCCC1)c1ccc(Br)o1`: the inhibition was inactive: -7.42%.

Consider `CN(C)C1(CNC(=O)c2ccccn2)CCCCC1`, for which the inhibition was inactive: -11%.

Take `Cc1ccc(C(C)CCN(CCCl)CCCl)cc1` (stereo not drawn): the inhibition is inactive: -3.11%.

For the molecule `Cc1nc([N+](=O)[O-])cn1CCC(=O)N[C@@H]1CCCC[C@H]1N1CCOCC1`, the inhibition is inactive: -9.12%.

For the molecule `O=C(NCC1(N2CCCCC2)CCCCC1)c1cccs1`, the inhibition is inactive: -10.6%.

For `c1ccc(NC2CCN(CCc3ccncc3)CC2)cc1`, the inhibition was inactive: -7.27%.
